Laboratory results: PubChem BioAssay AID504414 (Broad Institute, 2011)
This is a selection; strong and weak results do not stand in their true shares. Activity calls are given as the source filed them.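 The calls were made as follows: active = highest replicate inhibition of at least 40%; inactive = the rest.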

The molecules below were run against Golgi-associated PDZ and coiled-coil motif-containing protein (Homo sapiens) (UniProt Q9HD26) (assay: disruption of CAL PDZ-reporter peptide interaction – biochemical, fluorescence polarization, Cer-tagged CAL PDZ, HTS, primary screen (AID 504414;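 also: plate controls were DMSO neutral control wells for no effect and unlabeled competitor peptide control wells for full effect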)). Conditions: purified CAL PDZ, TMR-peptide fluorescence polarization, 1 h; at 20 µM; hits give high values.
In the case of `Cc1ccccc1CN(C)C(=O)COC(=O)C(O)(c1ccccc1)c1ccccc1`, the inhibition was inactive: 0.0319%. `C[C@H]1OP(=O)(Oc2ccccc2)C[C@@H]2O[C@@H]21` (stereo not given in full) was tested, and the inhibition was inactive: -0.581%. For `C[C@@H]1C=CCP(=O)(Oc2ccccc2)O1` (stereo not given in full), the inhibition was inactive: 0.829%. For `CC(=O)c1ccc(N2CC2c2ccncc2)cc1` (stereo not given), the inhibition was inactive: -3.03%. With `N#C/C(=C\c1ccc(N(CCBr)CCBr)cc1)C(N)=O` the inhibition was inactive: -1%. For `COC(=O)C1(C)COP(=O)(NCc2ccccc2)OC1` (stereo not given), the inhibition was inactive: -0.866%. `CC(=O)Nc1ccc([As](=O)(O)O)c(O)c1` was tested, and the inhibition was inactive: -1.7%. `CC(=O)Nc1ccc(Oc2c([N+](=O)[O-])cc([N+](=O)[O-])cc2[N+](=O)[O-])cc1` was tested, and the inhibition was inactive: 0.16%. With `O=P1(Nc2nc3ccc(Cl)cc3s2)COc2ccccc2O1` (stereo not given) the inhibition was inactive: 0.381%. `CCOc1ccc(C2=NCC(CBr)S2)cc1` (stereo not given) was tested, and the inhibition was inactive: -1.03%. In the case of `CC(C)(C)C(=O)NC(Sc1ccccc1)C(Cl)(Cl)Cl` (stereo not given), the inhibition was inactive: -0.273%. `CCc1cc(O)c([N+](=O)[O-])c(C)c1[N+](=O)[O-]` was tested, and the inhibition was inactive: 0.093%. `O=C(OC1CN2CCC1CC2)c1ccccc1` (stereo not given) was tested, and the inhibition was inactive: -0.704%. In the case of `CCC(=O)N1C2C3N(C(=O)CC)C1C1N(C(=O)CC)C(C(N1C(=O)CC)N3C(=O)CC)N2C(=O)CC`, the inhibition was inactive: -0.536%. For `COC(=O)c1cc2c(s1)N=C(c1ccccc1)N(C)P2(=O)N1CCOCC1` (stereo not given), the inhibition was inactive: -1.07%. In the case of `Cc1ccc(OP(=O)(Nc2ccccn2)Oc2ccc(C)cc2)cc1`, the inhibition was inactive: -0.409%. In the case of `CC(=O)NC(SC(=S)N(CC(C)C)CC(C)C)C(Cl)(Cl)Cl` (stereo not given), the inhibition was inactive: -0.215%. For `CC(NC(=O)COC(=O)C(O)(c1ccccc1)c1ccccc1)c1ccccc1` (stereo not given), the inhibition was inactive: -0.364%. For `Cc1ccccc1OP(=O)(Nc1ccccn1)Oc1ccccc1C`, the inhibition was inactive: -0.556%. In the case of `O=c1c2cc([N+](=O)[O-])ccc2[nH]c2c([N+](=O)[O-])cc([N+](=O)[O-])cc12`, the inhibition was inactive: 0.149%. For `CN(C)C(=O)Oc1noc2ccccc12`, the inhibition was inactive: 0.698%. For `c1ccc(-c2nn[nH]n2)c(-c2nn[nH]n2)c1`, the inhibition was inactive: 0.031%. In the case of `Cc1ccc(NP(=O)(Oc2cccc(C)c2)Oc2cccc(C)c2)nc1`, the inhibition was inactive: -3.09%. `CCNC(=S)/N=C(\N)N[N+](=O)[O-]` was tested, and the inhibition was inactive: -0.279%. In the case of `O=P1(N(CCCl)CCCl)OCCC2CCCCN21` (stereo not given), the inhibition was inactive: -1.14%. In the case of `O=[As](O)(c1ccccc1)c1ccc(O)cc1`, the inhibition was inactive: 1.42%. For `O=[N+]([O-])c1ncn(CCn2cnc([N+](=O)[O-])n2)n1`, the inhibition was inactive: 0.192%. In the case of `CC(=O)NC(SC(=S)N(C)C)C(Cl)(Cl)Cl` (stereo not given), the inhibition was inactive: -0.279%. For `O=[N+]([O-])c1ccc(O)c(/C=N/Nc2ccc([N+](=O)[O-])cc2[N+](=O)[O-])c1`, the inhibition was inactive: -0.721%. For `O=C(OC1CN2CCC1CC2)c1cccc(Cl)c1` (stereo not given), the inhibition was inactive: -0.275%. With `C(Cc1nn[nH]n1)Cc1nn[nH]n1` the inhibition was inactive: -0.233%. With `Nc1ccc([As](=O)(O)c2ccc([N+](=O)[O-])cc2)cc1` the inhibition was inactive: -3.12%. With `CN(C)C1(CNC(=O)c2ccc(Cl)c(S(N)(=O)=O)c2)CCCCC1` the inhibition was inactive: -0.848%. `O=P(Nc1ccccn1)(c1ccc(Br)cc1)c1ccc(Br)cc1` was tested, and the inhibition was inactive: -0.443%. With `COc1ccc(N)c([N+](=O)[O-])c1[N+](=O)[O-]` the inhibition was inactive: 0.162%. For `O=P(Nc1nc2ccccc2s1)(c1ccccc1)c1ccccc1`, the inhibition was inactive: -2.54%. For `C[C@H]1OP(=O)(Oc2ccccc2)[C@H](O)[C@H](O)[C@H]1N=[N+]=[N-]` (stereo not given in full), the inhibition was inactive: -0.862%. In the case of `O=P(Nc1nccs1)(c1ccccc1)c1ccccc1`, the inhibition was inactive: -0.899%. With `CC(C)C(=O)NC(Sc1ccccc1)C(Cl)(Cl)Cl` (stereo not given) the inhibition was inactive: 0.00673%. In the case of `c1nnnn1CCn1cnnn1`, the inhibition was inactive: -0.77%. With `CCN(/C(=N/P(=O)(N1CCOCC1)N1CCOCC1)N1CCOCC1)c1ccc(OC)cc1` the inhibition was inactive: -2.76%. In the case of `Nc1ccc([As](=O)(O)c2ccc(N)cc2)cc1`, the inhibition was inactive: -0.978%. `C[N+]1=C2C=CC=CC=C2SC12C([N+](=O)[O-])=CC([N+](=O)[O-])=C[C-]2[N+](=O)[O-]` (stereo not given) was tested, and the inhibition was inactive: 0.111%. With `CC1CCN(C(=O)Oc2c(Cl)cc(Cl)c3cccnc23)CC1` the inhibition was inactive: -1%. With `CC(C)=N/N=C(\N)N[N+](=O)[O-]` the inhibition was inactive: 0.564%. `CN(C)C(=O)OCCc1n(C)cc[n+]1C` was tested, and the inhibition was inactive: -1.7%. `COc1ccc(C2=NCC(CBr)S2)cc1` (stereo not given) was tested, and the inhibition was inactive: -0.0786%. `Cc1ccc(NP(=O)(Oc2ccccc2)Oc2ccccc2)nc1` was tested, and the inhibition was inactive: -0.216%. For `O=[N+]([O-])c1cc([N+](=O)[O-])c(CCNc2ccccc2)c([N+](=O)[O-])c1`, the inhibition was inactive: -0.559%. With `CCc1nc2c(n1)c1c(non1O)c1c2no[n+]1[O-]` the inhibition was inactive: -2.19%. `O=[N+]([O-])c1cccc2n[nH]nc12` was tested, and the inhibition was inactive: 0.767%. For `O=[N+]([O-])c1ncn(CCn2ncnc2[N+](=O)[O-])n1`, the inhibition was inactive: -0.916%. For `CC(C)(C)C(=O)NC(Sc1ccncn1)C(Cl)(Cl)Cl` (stereo not given), the inhibition was inactive: -1.8%. In the case of `O=C(O)CNc1ccc([As](=O)(O)O)cc1`, the inhibition was inactive: -1.15%. `COC(=O)C1(C)COP(=O)(Nc2ccccc2)OC1` (stereo not given) was tested, and the inhibition was inactive: -0.429%. In the case of `O=[N+]([O-])c1cccc(NC2=NCC(CBr)S2)c1` (stereo not given), the inhibition was inactive: 0.43%. For `O=P1(N(CCCl)CCCl)OCCCS1` (stereo not given), the inhibition was inactive: -0.315%. With `O=C(Nc1cc([As](=O)(O)O)ccc1O)c1ccccc1` the inhibition was inactive: 0.284%. `Nc1cccc2ccc([As](=O)(O)O)cc12` was tested, and the inhibition was inactive: -2.12%. With `CCN(N=Nc1nonc1N)c1nonc1N` the inhibition was inactive: -0.924%. In the case of `O=P(Nc1nc2ccc(Cl)cc2s1)(c1ccccc1)c1ccccc1`, the inhibition was inactive: -2.27%. With `CC(=O)Nc1ccc([As](=O)(O)O)cc1` the inhibition was inactive: -4.11%. `O=C(O)c1ccccc1[As](=O)(O)O` was tested, and the inhibition was inactive: -1.59%. In the case of `CCCC1OP(N)(=O)OCC1CC` (stereo not given), the inhibition was inactive: -0.262%. For `Cc1cc(SC(NC(=O)c2ccc(F)cc2)C(Cl)(Cl)Cl)ncn1` (stereo not given), the inhibition was inactive: -0.593%. With `CCOP(=O)(Nc1ccccc1)OCC` the inhibition was inactive: -0.0186%. For `CN(C(=O)Cc1ccc(Cl)c(Cl)c1)[C@H]1CCCC[C@@H]1N1CCCC1`, the inhibition was inactive: 0.118%. For `Cc1ccc(NP(=O)(Oc2ccccc2F)Oc2ccccc2F)nc1`, the inhibition was inactive: 1.28%. For `Oc1ccccc1CNc1ccccn1`, the inhibition was inactive: -1.66%. For `O=C(NC(Sc1ccncn1)C(Cl)(Cl)Cl)c1ccccc1` (stereo not given), the inhibition was inactive: -0.0934%. In the case of `Nc1cc(N)c2nonc2c1[N+](=O)[O-]`, the inhibition was inactive: 0.265%. In the case of `CC(C)CC(=O)NC(Sc1ccc(Cl)cc1)C(Cl)(Cl)Cl` (stereo not given), the inhibition was inactive: -1.66%. For `CN(C(=O)Cc1ccc(Cl)c(Cl)c1)[C@H]1CCCC[C@H]1N1CCCC1`, the inhibition was inactive: 0.804%. In the case of `Cc1ccc(N/C(=N/P(=O)(N2CCOCC2)N2CCOCC2)N2CCOCC2)cc1`, the inhibition was inactive: -1.84%. For `NC(=O)c1cc([N+](=O)[O-])cc([N+](=O)[O-])c1N`, the inhibition was inactive: -4.62%. In the case of `CN1CCCC(OC(=O)C(c2ccccc2)c2ccccc2)C1` (stereo not given), the inhibition was inactive: 0.307%. In the case of `Clc1ccc(Cl)c(NC2=NCC(CBr)S2)c1` (stereo not given), the inhibition was inactive: -0.822%. In the case of `COc1ccccc1OP(=O)(Nc1ccc(C)cn1)Oc1ccccc1OC`, the inhibition was inactive: 0.667%. In the case of `O=[N+]([O-])c1cc(Oc2ccc([N+](=O)[O-])cc2C(F)(F)F)cc([N+](=O)[O-])c1`, the inhibition was inactive: 0.0447%. With `COc1ccc(N/C(=N/P(=O)(N2CCOCC2)N2CCOCC2)N2CCOCC2)cc1` the inhibition was inactive: -0.415%. `Cc1c2c(nc3ccccc13)SC(C(Cl)Cl)C2` (stereo not given) was tested, and the inhibition was inactive: -1.47%. With `Cc1cc(=O)[nH]c(N[N+](=O)[O-])n1` the inhibition was inactive: -2.63%. In the case of `O=P1(N(CCCl)CCCl)OCCCN1CCCl` (stereo not given), the inhibition was inactive: -0.62%. For `O=P1(N(CCCl)CCCl)Nc2ccccc2N1`, the inhibition was inactive: 0.544%. In the case of `COc1ccc2nc(NP(=O)(c3ccccc3)c3ccccc3)sc2c1`, the inhibition was inactive: -0.737%. `COc1cc(I)ccc1[As](=O)(O)O` was tested, and the inhibition was inactive: -0.528%. With `ClCCSc1nnc(-c2cccnc2)o1` the inhibition was inactive: -0.303%. In the case of `COC(=O)C1(C)COP(=O)(N2CCCCCC2)OC1` (stereo not given), the inhibition was inactive: -0.875%. In the case of `CC(C)c1ccc(OP(=O)(Nc2ccccn2)Oc2ccccc2F)cc1` (stereo not given), the inhibition was inactive: -1.03%. In the case of `CC(C)NC(=O)NP(=O)(Oc1ccccc1)Oc1ccccc1`, the inhibition was inactive: -0.31%. With `O=C(OC1CN2CCC1CC2)c1cccc2[nH]cnc12` (stereo not given) the inhibition was inactive: 0.863%. For `CCN(CC)C(=S)SC(NC=O)C(Cl)(Cl)Cl` (stereo not given), the inhibition was inactive: -0.672%. For `O=[N+]([O-])c1cc([N+](=O)[O-])c(-c2ccn[nH]2)s1`, the inhibition was inactive: -0.797%. For `C[As](=O)(O)c1cccc(C(=O)O)c1`, the inhibition was inactive: -0.653%. `O=[As](O)(c1ccc(O)cc1)c1ccccc1O` was tested, and the inhibition was inactive: -0.875%. `O=[N+]([O-])c1ccc(-c2cc([N+](=O)[O-])c(O)c([N+](=O)[O-])c2)cc1` was tested, and the inhibition was inactive: -0.507%. With `COc1cc(C(=O)NCC2(N3CCOCC3)CCCCC2)ccc1OCC(C)C` the inhibition was inactive: -0.115%. With `Cc1ccc(OP(=O)(Nc2ccc([N+](=O)[O-])cn2)Oc2ccc(C)cc2)cc1` the inhibition was inactive: -0.783%. `Cc1ccc2nc3c(c(C)c2c1)CC(C(Cl)Cl)S3` (stereo not given) was tested, and the inhibition was inactive: -1.09%. For `CCOC(=O)Nc1cccc([As](=O)(O)O)c1`, the inhibition was inactive: -0.515%.
